# Experimental data reported in paper PMC10285950 (ACS Omega, 2023).
# Chains of the proteins cited; added tags and fusions are not shown. Residues count along the entry.
# UniProt P34969, 1-445 isoform P34969-2: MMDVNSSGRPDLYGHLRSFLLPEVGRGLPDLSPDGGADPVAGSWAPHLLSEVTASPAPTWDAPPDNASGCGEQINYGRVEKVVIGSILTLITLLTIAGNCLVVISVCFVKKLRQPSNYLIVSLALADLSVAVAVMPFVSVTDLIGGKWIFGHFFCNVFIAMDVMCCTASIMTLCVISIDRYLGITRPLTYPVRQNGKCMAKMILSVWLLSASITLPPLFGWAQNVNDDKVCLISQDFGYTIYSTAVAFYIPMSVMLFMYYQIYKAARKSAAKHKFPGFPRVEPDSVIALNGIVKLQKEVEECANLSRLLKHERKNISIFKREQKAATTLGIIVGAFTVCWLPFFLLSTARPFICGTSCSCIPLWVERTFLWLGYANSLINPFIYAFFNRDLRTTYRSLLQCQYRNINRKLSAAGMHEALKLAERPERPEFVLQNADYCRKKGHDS
# Molecular target: h5HT7A receptor (Homo sapiens, UniProt P34969)
# Assay: [3H]5-HT binding at 5HT7A receptors
# Settings: read-out: Kd of radioligand at 5HT7A receptors used in Cheng-Prusoff equation
substance,measurement,value
[^3H]5HT,Kd,0.347 nM
